According to patent US20080095849A1, “Peptide sustained release compositions and uses thereof” (Amgen Inc., priority 2005, published 2008):

Assays:
[1] = Half-life of B1 peptide antagonists in rat plasma; format: in vivo
From the text: As mentioned, the compositions disclosed herein enable prophylactic, therapeutic, and/or diagnostic use of certain classes of active agents some of which were previously considered too unstable in vivo to be used effectively. For example, the known shortcomings in known B1 peptide antagonists with respect to their therapeutic use are surmountable by formulating them in compositions of the present invention that maximize antagonist activity and specificity while prolonging efficacious half-life in vivo. More specifically, the half-life of Peptide A (SEQ ID NO: 15), Peptide B (SEQ ID NO:37) and Peptide C (SEQ ID NO:36) is about 3 hours, 40 minutes, and 40 minutes, respectively, in rat plasma. The accelerated sustained release and/or extended circulating half-lives of the B1 peptides formulated as described herein results in a much more desirable exposure window and may provide better efficacy in vivo as compared to common formulations of these compounds.

[2] = Plasma concentration-time profile after subcutaneous injection of microparticles into male Sprague-Dawley rats; format: in vivo, rat; settings: solution bolus of Peptide A

Substance | half-life in rat plasma [1] | release profile duration of Peptide A (plasma concentration-time profile) [2] [h]
DOrn Lys Arg Pro Hyp Gly Cpg Ser DTic Cpg [Peptide A] | about 3 hours | 8
LysLys Arg Pro Hyp Gly Cpg Ser DTic Cpg [Peptide C] | ~40 min | –
